Test [1] concerns the target FSH receptor (calf testis membranes). The test can be described thus: FSH radioligand-receptor assay: inhibition of 125I-hFSH binding to calf testis membranes. Conditions: worked out from the bFSH BI50 and its 50 times lower activity.
Test [2] has as its system LH receptor (rat Leydig cells as a receptor source). The test can be described thus: LH-BI radioligand-receptor assay: inhibition of 125I-hLH binding to rat Leydig cells. Conditions: hormone reference preparation.

For “h FSH (17812): highly purified hFSH used to prepare the 125I-hFSH”, the “BI50, analogous value for highly purified hFSH” value in test [1] is on record as 6.9 ng/ml.
On to “hLH (LER 1972): highly purified human LH reference preparation, also used to prepare the 125I-hLH”, for which the BI50 dose in test [2] came to 5.3 ± 0.4 ng/mL.

The record behind these values is patent US4652450A, “Bacterial FSH binding inhibitor” (Research Corporation, priority 1984, dated 1987).
